# Tests used:
# Sequences of proteins named here, by UniProt entry; tags and fusion partners are left off. A change or cut given only in a name is not applied to a line headed by its entry.
# UniProt O14939: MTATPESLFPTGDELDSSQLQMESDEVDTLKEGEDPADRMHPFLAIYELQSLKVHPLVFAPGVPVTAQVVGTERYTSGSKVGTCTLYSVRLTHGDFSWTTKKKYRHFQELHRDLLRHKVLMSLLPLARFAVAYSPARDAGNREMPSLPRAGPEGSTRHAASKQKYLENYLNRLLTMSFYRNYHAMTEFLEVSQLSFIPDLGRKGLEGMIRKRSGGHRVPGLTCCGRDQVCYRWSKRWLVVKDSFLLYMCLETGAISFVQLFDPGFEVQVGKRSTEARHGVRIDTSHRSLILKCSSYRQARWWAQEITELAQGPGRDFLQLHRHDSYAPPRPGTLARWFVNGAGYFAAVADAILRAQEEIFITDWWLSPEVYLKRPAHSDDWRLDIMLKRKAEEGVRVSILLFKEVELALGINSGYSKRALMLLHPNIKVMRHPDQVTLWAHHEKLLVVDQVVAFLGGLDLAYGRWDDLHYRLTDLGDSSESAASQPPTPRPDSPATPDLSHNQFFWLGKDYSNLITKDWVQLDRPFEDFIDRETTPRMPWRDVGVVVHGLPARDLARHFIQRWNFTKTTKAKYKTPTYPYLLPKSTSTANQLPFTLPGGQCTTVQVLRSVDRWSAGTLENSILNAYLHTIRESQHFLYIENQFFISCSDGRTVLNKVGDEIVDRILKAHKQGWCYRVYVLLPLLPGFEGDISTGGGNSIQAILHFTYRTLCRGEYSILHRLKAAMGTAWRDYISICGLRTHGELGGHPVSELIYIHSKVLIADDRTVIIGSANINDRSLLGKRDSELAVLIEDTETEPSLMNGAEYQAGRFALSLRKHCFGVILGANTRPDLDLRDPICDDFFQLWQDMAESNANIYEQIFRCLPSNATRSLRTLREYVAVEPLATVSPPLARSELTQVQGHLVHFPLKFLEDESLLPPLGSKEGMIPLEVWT
# [1] = target: T1, PLD1 (Homo sapiens, UniProt Q13393); conditions: cell based assay; cited from earlier work
# T1 sequence (Q13393 1-1074): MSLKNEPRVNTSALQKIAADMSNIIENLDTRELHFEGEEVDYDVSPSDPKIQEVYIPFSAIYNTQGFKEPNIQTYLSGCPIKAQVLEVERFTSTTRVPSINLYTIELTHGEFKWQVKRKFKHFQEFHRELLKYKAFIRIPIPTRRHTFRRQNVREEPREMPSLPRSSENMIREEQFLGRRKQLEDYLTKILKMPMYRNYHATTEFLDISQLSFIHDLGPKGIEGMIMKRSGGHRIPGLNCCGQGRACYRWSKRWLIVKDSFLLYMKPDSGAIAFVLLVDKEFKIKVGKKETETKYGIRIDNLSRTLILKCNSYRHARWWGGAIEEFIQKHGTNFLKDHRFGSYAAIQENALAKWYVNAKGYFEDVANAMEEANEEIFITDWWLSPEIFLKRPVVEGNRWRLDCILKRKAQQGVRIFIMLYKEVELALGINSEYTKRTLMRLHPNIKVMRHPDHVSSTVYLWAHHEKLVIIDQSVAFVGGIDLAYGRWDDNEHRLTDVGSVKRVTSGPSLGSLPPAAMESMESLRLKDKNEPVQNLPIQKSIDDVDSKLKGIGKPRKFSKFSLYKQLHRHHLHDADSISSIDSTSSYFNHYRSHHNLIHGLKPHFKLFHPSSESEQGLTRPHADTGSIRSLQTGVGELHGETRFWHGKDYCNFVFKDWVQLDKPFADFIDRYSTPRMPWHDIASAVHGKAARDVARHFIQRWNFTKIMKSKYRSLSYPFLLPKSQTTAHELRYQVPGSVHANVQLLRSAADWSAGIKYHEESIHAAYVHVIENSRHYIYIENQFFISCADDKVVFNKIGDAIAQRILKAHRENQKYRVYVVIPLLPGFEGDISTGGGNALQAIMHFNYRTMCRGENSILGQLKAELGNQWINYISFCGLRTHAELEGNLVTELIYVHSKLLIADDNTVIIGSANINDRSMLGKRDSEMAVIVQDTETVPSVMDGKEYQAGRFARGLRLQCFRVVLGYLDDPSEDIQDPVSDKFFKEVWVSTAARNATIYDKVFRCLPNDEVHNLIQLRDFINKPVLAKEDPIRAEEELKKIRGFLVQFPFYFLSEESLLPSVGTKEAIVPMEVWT
# [2] = target: PLD2 (Homo sapiens, UniProt O14939); conditions: recently reported; cited from earlier work
# [3] = target: T1, PLD1; test: biochemical
# [4] = target: T1, PLD1; conditions: cellular assay, Calu-1 cells
structure (smiles),measurement,setting,value
C[C@@H](CN1CCC(n2c(=O)[nH]c3cc(Br)ccc32)CC1)NC(=O)[C@H]1C[C@@H]1c1ccccc1 [Compound 2],Selectivity for PLD1 over PLD2,[1],> 1700 fold
O=C(NCCN1CCC2(CC1)C(=O)NCN2c1ccccc1)c1ccc2ccccc2c1 [Compound 3],PLD2 selectivity versus PLD1,[2],~ ninefold
C[C@@H](CN1CCC2(CC1)C(=O)NCN2c1ccccc1)NC(=O)c1ccc2ccccc2c1 [Compound 10a],IC50,[3],0.299 µM
same,Increase of PLD1 inhibitory activity relative to 3,[4],40 fold

# From paper PMC3800051 (Bioorganic & medicinal chemistry letters, 2009)
